According to PubChem BioAssay AID624202 (National Center for Advancing Translational Sciences (NCATS), 2012):
Only a part is listed here, and it is no random draw. Calls of active or inactive are those of the source. The call rests on the fitted dose curve; in most records, active means well fitted activation curve with a large enough effect; inconclusive means small, poorly fitted or top-dose-only effect; inactive means no such curve, though single readings can be large or run the other way.

Assay: qHTS Assay to Identify Small Molecule Activators of BRCA1 Expression; further: nearly all actives have a fitted effect of over 80% in size
Settings: MCF7-BRCA1-FFLuc reporter, luminescence, 48 h, scaled: vehicle 0%, 10 µM genistein 100%; at 46.1 µM (top of the series)

SMILES | activation
CN1CCCCC1COC(=O)C1(O)c2ccccc2CCc2ccccc21 (stereo unspecified) | inactive: -27%
COc1ccccc1OP(C)(=O)Nc1c(C)cccc1C (stereo unspecified) | inactive: -29.4%
CCCOc1ccc(NP(C)(=O)Oc2ccc(Cl)cc2)cc1 (stereo unspecified) | inactive: -8.84%
CP(=O)(Nc1ccc(SC(F)(F)F)cc1)Oc1ccccc1 (stereo unspecified) | inactive: -31.6%
CC1=C2N=C(C=C3N=C(C(C)=C4[N-][C@@](C)([C@@H]5N=C1[C@](C)(CCC(=O)NC[C@@H](C)OP(=O)([O-])O[C@H]1[C@@H](O)[C@@H](n6cnc7cc(C)c(C)cc76)O[C@@H]1CO)[C@H]5CC(N)=O)[C@@](C)(CC(N)=O)[C@@H]4CCC(N)=O)[C@@](C)(CC(N)=O)[C@@H]3CCC(N)=O)C(C)(C)[C@@H]2CCC(N)=O.[C-]#N.[Co+3] | inactive: 5.6%
O=[N+]([O-])c1cc([N+](=O)[O-])c(Nc2nnnn2CCO)c([N+](=O)[O-])c1 | inactive: -19.8%
O=[N+]([O-])c1cc([N+](=O)[O-])c(-c2cnn(-c3ccccc3)c2)c([N+](=O)[O-])c1 | inactive: -31.9%
Cc1nc2ccc3ccccc3c2s1.O=[N+]([O-])c1cc([N+](=O)[O-])c(O)c([N+](=O)[O-])c1 | inactive: 0%
O=[N+]([O-])c1cc([N+](=O)[O-])c(-n2nnc3ccccc32)c([N+](=O)[O-])c1 | inactive: 19.5%
CN(Cc1cccnc1)C(=O)COc1ccc(Cl)c(Cl)c1.O=[N+]([O-])c1cc([N+](=O)[O-])c(O)c([N+](=O)[O-])c1 | inactive: 11%
Cc1cc(C)cc(OP(C)(=O)Nc2ccccn2)c1 (stereo unspecified) | inactive: 1.37%
CP(=O)(Nc1cccc(Br)c1)Oc1ccccc1 (stereo unspecified) | inactive: -12.9%
Cc1ccc(C)c(NP(C)(=O)Oc2ccccc2)c1 (stereo unspecified) | inactive: -3.23%
COc1ccccc1OP(C)(=O)Nc1cccc(Br)c1 (stereo unspecified) | inactive: 13.1%
Cc1cc(C)cc(OP(C)(=O)Nc2ccc(C)cc2C)c1 (stereo unspecified) | inactive: 9.25%
CCOC(=O)c1ccc(NP(C)(=O)Oc2cc(C)cc(C)c2)cc1 (stereo unspecified) | inactive: -74.3%
CC1=NCCc2c1[nH]c1ccccc21.O=[N+]([O-])c1cc([N+](=O)[O-])c(O)c([N+](=O)[O-])c1 | inactive: 2.93%
CCOC(=O)c1ccc(NP(C)(=O)Oc2ccccc2)cc1 (stereo unspecified) | inactive: -15.7%
COc1ccccc1OP(C)(=O)Nc1ccc(C)cc1 (stereo unspecified) | inactive: 0.227%

SMILES | activation
Cc1ccc(NP(C)(=O)Oc2ccccc2)c(C)c1 (stereo unspecified) | inactive: -7.2%
COc1ccccc1OP(C)(=O)Nc1cc(Cl)ccc1C (stereo unspecified) | inactive: -2.68%
COc1ccc(OP(C)(=O)Nc2cccc(F)c2)cc1 (stereo unspecified) | inactive: -0.0093%
Cc1cc(C)cc(OP(C)(N)=O)c1 (stereo unspecified) | inactive: -2.98%
O=[N+]([O-])c1cc([N+](=O)[O-])c(Nc2cccnc2)c([N+](=O)[O-])c1 | inactive: -45.2%
CC(C)(C)c1ccc(OP(C)(=O)Nc2ccc(SC(F)(F)F)cc2)cc1 (stereo unspecified) | inactive: -89.5%
Cc1cccc(C)c1OP(C)(N)=O (stereo unspecified) | inactive: -7.46%
O=[N+]([O-])c1ccc2c(c1)C=Nc1ccccc1O2 | inactive: -33.6%
COc1ccccc1-c1ccccn1.O=[N+]([O-])c1cc([N+](=O)[O-])c(O)c([N+](=O)[O-])c1 | inactive: 20.8%
CCN(CC)CCCOC(=O)C(O)(c1ccccc1)c1ccccc1 | inactive: -5.74%
CCOP(C)(=S)SCC(=O)NC(C)C(=O)O (stereo unspecified) | inactive: 1.62%
O=[N+]([O-])c1cc([N+](=O)[O-])c(O)c([N+](=O)[O-])c1.c1ccc(Oc2ccncc2)cc1 | inactive: 0%
CCOC(=O)c1ccc(NP(C)(=O)Oc2ccc(OC)cc2)cc1 (stereo unspecified) | inactive: -15.9%
CP(=O)(Nc1ccccn1)Oc1ccc(Cl)cc1 (stereo unspecified) | inactive: 0.645%
CP(=O)(Nc1ccc(SC(F)(F)F)cc1)Oc1ccc(Cl)cc1 (stereo unspecified) | inactive: -35.6%
Cc1cccc(C)c1OP(C)(=O)Nc1ccc(SC(F)(F)F)cc1 (stereo unspecified) | inactive: 1.64%
CP(=O)(Oc1ccccc1)OC(c1ccccc1)C(F)(F)F (stereo unspecified) | inactive: -1.52%
CP(=O)(NC(=O)Nc1ccccc1)Oc1ccccc1 (stereo unspecified) | inactive: 0.889%
CCc1ccc(OP(C)(=O)N2CCN(c3ccc([N+](=O)[O-])cc3)CC2)cc1 (stereo unspecified) | inactive: -1.05%

SMILES | activation
Cc1cc(C)cc(OP(C)(=O)Nc2ccc(SC(F)(F)F)cc2)c1 (stereo unspecified) | inactive: -32.8%
CP(=S)(Nn1cnnc1)Oc1ccccc1 (stereo unspecified) | inactive: -1.59%
COc1ccccc1OP(C)(=O)Nc1ccccc1 (stereo unspecified) | inactive: -0.323%
CP(=O)(Nc1ccccc1Br)Oc1ccccc1 (stereo unspecified) | inactive: 1.66%
Nc1ccc2c(ccc3cccnc32)n1.O=[N+]([O-])c1cc([N+](=O)[O-])c(O)c([N+](=O)[O-])c1 | inactive: 59.6%
CP(=O)(OC12CC3CC(CC(C3)C1)C2)OC12CC3CC(CC(C3)C1)C2 | inactive: -20.9%
CCOC(=O)c1ccc(NP(C)(=O)Oc2ccc(Cl)cc2)cc1 (stereo unspecified) | inactive: -14.4%
CP(=O)(Nc1ccc(Cl)cc1)Oc1ccc(F)cc1 (stereo unspecified) | inactive: 22.1%
COc1ccccc1OP(C)(=O)Nc1ccccc1Br (stereo unspecified) | inactive: -4.03%
CC(C)(C)c1ccc(OP(C)(=O)O)cc1 | inactive: 7.21%
CN(C)C(=O)c1c([N+](=O)[O-])cc([N+](=O)[O-])cc1[N+](=O)[O-] | inactive: -86.6%
CCN(CC)CC(O)COC(=O)C(O)(c1ccccc1)C1CCCCC1 (stereo unspecified) | inactive: -0.163%
COc1ccc(OP(C)(=O)Nc2ccc(Br)cc2)cc1 (stereo unspecified) | inactive: -14%
CP(=O)(Oc1ccccc1)N1CCOC1=O (stereo unspecified) | inactive: -21.3%
CCc1ccc(OP(C)(=O)Nc2cccnc2)cc1 (stereo unspecified) | inactive: -25.1%
COc1ccccc1OP(C)(=O)Nc1c(C)n(C)n(-c2ccccc2)c1=O (stereo unspecified) | inactive: -14%
O=C(OCCCN1CCCC1)C(O)(c1ccccc1)C1CCCCC1 (stereo unspecified) | inactive: -13.8%
Cc1c(NP(C)(=O)Oc2ccc(C(C)C)cc2)c(=O)n(-c2ccccc2)n1C (stereo unspecified) | inactive: 1.01%
